Biological target: CYP3A4 (Homo sapiens, UniProt P08684)
Conditions: pH 7.4

The chains behind the UniProt entries cited, without tags or fusion partners.
UniProt P08684, whole entry: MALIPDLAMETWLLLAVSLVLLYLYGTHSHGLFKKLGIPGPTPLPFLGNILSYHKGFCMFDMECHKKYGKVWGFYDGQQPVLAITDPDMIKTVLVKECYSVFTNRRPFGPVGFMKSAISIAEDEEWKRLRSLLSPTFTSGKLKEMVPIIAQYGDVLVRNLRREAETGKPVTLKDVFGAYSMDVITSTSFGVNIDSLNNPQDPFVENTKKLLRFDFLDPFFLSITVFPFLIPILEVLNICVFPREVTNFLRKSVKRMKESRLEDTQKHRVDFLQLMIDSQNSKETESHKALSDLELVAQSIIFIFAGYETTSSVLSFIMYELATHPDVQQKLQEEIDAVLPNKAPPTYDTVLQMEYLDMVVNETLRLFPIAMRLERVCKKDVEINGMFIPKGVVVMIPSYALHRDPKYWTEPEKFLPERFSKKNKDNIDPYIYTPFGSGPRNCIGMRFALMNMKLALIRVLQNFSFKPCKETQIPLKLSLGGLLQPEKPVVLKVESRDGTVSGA

## bromocryptine
  High-Spin Shift: 90%
  Kd: 430 ± 80 nM
